Source: paper PMC9725750, “The clinical pharmacology of tafenoquine in the radical cure of Plasmodium vivax malaria: An individual patient data meta-analysis” (eLife, 2022)

Test system: Plasmodium vivax
Assay: Radical cure efficacy: any P. vivax recurrence within 4 months in patients, pooled DETECTIVE part 1/2 and GATHER (logistic regression and Emax models)
Format: in vivo, human
Conditions: logistic regression; 95% CI 0.66–0.78
Excerpt: The primary endpoint for the main efficacy analyses was any P. vivax recurrence within 4 months. We chose the binary endpoint of any recurrence rather than the time to first recurrence because tafenoquine has both asexual stage antimalarial activity ([Fukuda et al., 2017]) and hypnozoiticidal activity. […] The choice of a particular cut-off for follow-up is thus a trade-off between sensitivity and specificity. Longer follow-up will increase the sensitivity of the endpoint (include more relapses) but decrease specificity (include more reinfections).
For all predictors we fitted Bayesian mixed effects logistic regression models (random intercepts for study and study site), with adjustment for day 0 parasitaemia (log transformed). […]
For the mg/kg dose (the primary predictor of interest), the dose-response relationship was then assessed under a Bayesian Emax model, where the dose-dependent logit probability of recurrence is defined as: Emax(d,x)=α+βx+δd^k/d^k+γ^k, […]
In a priori sensitivity analyses, all recurrences up until 6 months were included as both binary and time to event outcomes. The time to first recurrence was defined as a P. vivax episode between day 7 and day 180 with right censoring at the last recorded visit. […]

## COc1cc(NC(C)CCCN)c2ncccc2c1 (stereo not shown) [primaquine]
  odds ratio for recurrence within 4 months per 0.7 mg/kg increase in the total primaquine dose: 0.72
